Results on one substance are retold here after publication PMC2187893 (The Journal of Experimental Medicine, 1990).

This experiment concerns human peripheral blood T cells. Briefly: Naloxone inhibition of T cell migration to stimuli. The following applies: donor 4, stimulus at 100 U/ml; spontaneous locomotion subtracted. Format: cell-based.

IL-2: the lymphokine IL-2: the “Specific migration without naloxone” value is 1,440.
